# In PubChem BioAssay AID602281 (The Scripps Research Institute Molecular Screening Center, 2012):
# Amino acid sequences for entries named in this document (tags omitted).
# UniProt Q00G26, whole entry, looked up: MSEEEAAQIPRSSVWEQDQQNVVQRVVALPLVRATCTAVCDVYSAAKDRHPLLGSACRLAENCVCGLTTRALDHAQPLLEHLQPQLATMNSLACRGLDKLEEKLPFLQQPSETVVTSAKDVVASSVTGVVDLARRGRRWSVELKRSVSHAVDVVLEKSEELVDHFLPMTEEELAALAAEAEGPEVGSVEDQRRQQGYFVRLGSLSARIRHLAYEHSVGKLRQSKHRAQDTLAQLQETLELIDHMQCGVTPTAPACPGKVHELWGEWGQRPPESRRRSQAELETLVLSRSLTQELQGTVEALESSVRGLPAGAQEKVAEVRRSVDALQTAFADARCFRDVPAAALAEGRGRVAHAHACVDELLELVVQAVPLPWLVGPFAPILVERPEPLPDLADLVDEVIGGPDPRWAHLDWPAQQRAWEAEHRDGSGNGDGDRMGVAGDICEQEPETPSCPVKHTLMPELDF
# UniProt Q8WTS1, whole entry, looked up: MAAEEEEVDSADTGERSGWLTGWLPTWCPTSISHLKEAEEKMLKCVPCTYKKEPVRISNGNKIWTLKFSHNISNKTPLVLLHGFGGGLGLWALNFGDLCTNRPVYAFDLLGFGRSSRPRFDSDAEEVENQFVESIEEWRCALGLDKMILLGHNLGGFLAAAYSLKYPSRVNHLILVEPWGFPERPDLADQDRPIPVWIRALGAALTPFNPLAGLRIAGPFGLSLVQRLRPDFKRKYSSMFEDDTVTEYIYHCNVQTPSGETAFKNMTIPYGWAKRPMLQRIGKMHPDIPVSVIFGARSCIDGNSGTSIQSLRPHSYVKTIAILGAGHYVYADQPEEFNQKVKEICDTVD
# The entries are a selection whose mix differs from that of the whole data set. Activity calls are given as the source filed them.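 The calls were made as follows: active = inhibition above the mean inhibition across every tested compound plus 3 SD (cut at about 22% in these data); inactive = the rest.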
# Target: Perilipin-5 (Homo sapiens) + 1-acylglycerol-3-phosphate O-acyltransferase ABHD5 (Homo sapiens) (UniProt Q00G26+Q8WTS1)
# Test: ABHD5-PLIN5 interaction inhibitors, primary screen, cell lysate, split luciferase complementation, luminescence (AID 602281);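 also: 0% = DMSO only wells and the 100% control is not disclosed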
# Settings: Split G. princeps luciferase complementation, 4 h, at 4 µM, active compounds read high
row,SMILES,inhibition
1,C[C@@H]1C=CCP(=O)(Oc2ccccc2)O1 (some centres not stated),inactive: -1.85%
2,Cc1ccc(OCC(=O)OC2CN3CCC2CC3)cc1 (configuration not stated),inactive: 2.42%
